The data set is described as follows: X-ray powder diffraction (XRPD) of salt screen and scale-up products. Type of data set: physicochemical. The following applies: salt screen.

Turning to Succinate, the “XRPD Pattern” value is, setting by setting: (E, MeOH, oil, ACN) “API A + NC”; (Grind, ACN) “API A + acid”.
Take Nicotinate: the “XRPD Pattern” value (E, MeOH) was “API A + acid”; the “XRPD Pattern” value (Grind, ACN) was “API A + acid”; the “XRPD Pattern” value (SL, ACN, 50° C.) is on record as “Acid”.

These data come from patent US20260092037A1, “CRYSTALLINE SALT FORMS OF N-((1-(2-(TERT-BUTYLAMINO)-2-OXOETHYL)PIPERIDIN-4-YL) METHYL)-3-CHLORO-5-FLUOROBENZAMIDE AND METHODS OF USE THEREOF” (priority 2023, published 2026).
